# Antibody variant affinities, Ab-14 light chain, assay B

Target: peptide PDVDLGDISGINAS, taken from heptad repeat 2 (HR2) of SARS-CoV-2 spike.

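Phage display of a naive human antibody library on the peptide gave the parent. These sequences belong to a second round, designed from the earlier measurements on random variants of the parent. Group labels follow the data file (Ctrl: baseline library sampled from a position-specific scoring matrix, with some repeated check sequences; En: ensemble of fine-tuned language models; GP: Gaussian process model; HC: hill climbing; Gen: genetic algorithm; Gibbs: Gibbs sampling; a sequence that several methods proposed may carry one label only). In AlphaSeq, yeast of one mating type display the scFv and yeast of the other type display the target. After mating in shaken culture at 30 °C for 16 h, diploids were selected and their barcode pairs sequenced. The ratio of observed to expected reads was calibrated, replicate by replicate, on BCL2-family standards whose Kd was known from biolayer interferometry. Each pool was mated in six replicate cultures.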

Parent: Ab-14, a human scFv built as VH, a 15-residue (Gly4Ser)3 linker, VL. Only the CDRs of the light chain vary.
VH: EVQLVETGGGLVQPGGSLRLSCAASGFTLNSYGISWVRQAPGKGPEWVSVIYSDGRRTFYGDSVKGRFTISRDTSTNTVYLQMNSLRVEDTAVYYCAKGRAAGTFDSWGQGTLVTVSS
VL: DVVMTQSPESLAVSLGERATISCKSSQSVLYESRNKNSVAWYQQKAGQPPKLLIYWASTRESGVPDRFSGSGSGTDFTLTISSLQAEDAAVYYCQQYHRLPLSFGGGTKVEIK

Variants are written as CDR1, CDR2 and CDR3 of the light chain (limits as in the source). Parent: KSSQSVLYESRNKNSVA, WASTRES, QQYHRLPLS. The read-out is the apparent dissociation constant on a log10 scale (nM): the lower, the stronger. Averages over replicates are reported, and they cover detected replicates only. An entry "no signal" has no value in the source: the pair was not observed among the diploids in any replicate. This suggests poor binding but is not conclusive. A sequence measured in both rounds can read differently, since the two assays cover different ranges. The authors averaged sequences with at least three values out of six and counted those with two or fewer as poor binders. Of ten entries with the parent sequence, four were seen in most replicates (averages 0.34 to 2.37), three in one and three in none, so single entries are noisy. As a blank, each scFv also met three strains without target: over all light chain designs, 4% of these pairings were detected, typically at 2.64 and seldom below 1.59. For each scFv, signals with the empty controls are counted beside the result.

CDR-L1 | CDR-L2 | CDR-L3 | group | mean log10 Kd (nM) | replicates with signal | empty controls
KIGMTLNQLMKKKNNVA | DLVEREN | QQYFRLPLS | En_Gen | 0.44 | 6 of 6 | 0 of 18
KLSMVTGHMSMAKNNVA | EMETREK | QQYNRLPLS | En_Gen | -0.08 | 6 of 6 | 3 of 18
QLQLVQQGDTISEYSVA | HAEVSGR | QQYSQLPLI | En_Gibbs | no signal | 0 of 6 | 0 of 18
KVSQSVPYESRNKNSVA | NASQRES | QQYHRLPLS | GP_Gen | 0.50 | 6 of 6 | 0 of 18
KFANQLVYWNQGQNAIA | DVTTKSA | QQYLQLPLM | En_Gibbs | 1.53 | 6 of 6 | 0 of 18
IVSQLMLWGWHAKNSIA | EAQTRLN | QQYDRLPLE | En_Gen | -0.16 | 6 of 6 | 1 of 18
YMSMYLDMQQNIQCGVA | DATTRNA | QQYQRLPLS | En_Gibbs | 1.70 | 4 of 6 | 0 of 18
KLQQSVLYESRNKNSVA | NASTRMQ | QQYHRLPLS | GP_Gen | -0.18 | 6 of 6 | 1 of 18
KIQQSVYYEDLNKNSVA | HASTRCD | QQYHRLPLS | GP_Gibbs | 0.32 | 6 of 6 | 1 of 18
KSSQSVLYASRNKNSVA | WGSTRES | QQYHRLPLS | Ctrl | 1.58 | 6 of 6 | 2 of 18
MISQVMNTLTRTGNNVA | DLAEREV | QQYFRLPLS | En_Gen | 1.27 | 6 of 6 | 0 of 18
KSSQSHLYESVNKNSVA | AASTRED | QQYHRLPLS | Ctrl | 0.04 | 6 of 6 | 2 of 18
KCSQDYCYGDRNKNSVA | NASTREQ | QQYHRLPLS | GP_Gibbs | -0.18 | 6 of 6 | 0 of 18
ALSQSMDMTSKNVNSVA | DLTTRGN | QQYHRLPLS | En_HC | -0.22 | 6 of 6 | 1 of 18
KLSQSMEYESRNWNSVA | QASTREH | QQYHRLPLM | GP_Gibbs | 1.10 | 4 of 6 | 0 of 18
KLSVSWLFESIMKNSVA | ERSTRED | QDYNRLPLS | En_HC | 1.73 | 6 of 6 | 0 of 18
KIGMTLNQLLQKKNNVA | DLVTREN | QQYHRLPLS | En_Gen | 0.25 | 6 of 6 | 0 of 18
KSSQSVLYESRNNNSVA | WASHRMS | QQYHRLPLS | Ctrl | 1.50 | 6 of 6 | 2 of 18
YLSQSVLYESRNKNSVA | NASTREM | QQYHRLPLQ | GP_Gibbs | 0.47 | 6 of 6 | 0 of 18
KSSQSYHYESRNKNSVA | GASTRES | QQYHRLPLS | GP_HC | 0.62 | 6 of 6 | 0 of 18
KAQQSVGYGERNSNSVA | EASKRES | QQYHRLPLS | GP_Gibbs | 0.41 | 6 of 6 | 2 of 18
KFPQSELYESRNKNSVA | NASQRES | QQYHRLPLS | GP_Gen | -0.38 | 6 of 6 | 0 of 18
KIELDLTRYNNGYSAIA | GETQKAN | QQYSRLPLV | En_Gibbs | 0.39 | 6 of 6 | 1 of 18
KLSMSVLYESTNKNSVA | WASTRES | QQMFRLPLS | Ctrl | no signal | 0 of 6 | 0 of 18
KSSQSVLAESRNKNSVA | WASTRES | QMHHRLPLS | Ctrl | 2.37 | 1 of 6 | 0 of 18
KSSPSDLGESRNKQSVA | WASTRES | QQYIRLTLS | Ctrl | no signal | 0 of 6 | 0 of 18
MIAGSMENQEANWAPVA | SATCKEP | QQYSRLPLM | En_Gibbs | 1.31 | 6 of 6 | 0 of 18
MVSQLMLWGLHAKNSIA | EAQTRLN | QQYDRLPLF | En_Gen | 1.16 | 1 of 6 | 0 of 18
KVSQSWLYESRMKNSVA | NASQRES | QQYHRLPLS | GP_Gen | -0.09 | 6 of 6 | 0 of 18
KSQQNVLYESRNKNSVA | GASTRES | QQYHRLPLS | Ctrl | -0.20 | 6 of 6 | 2 of 18
KVSQSVLYESRMKNSVA | DASTRCS | QQYHRLPLM | GP_HC | 0.23 | 6 of 6 | 1 of 18
HIFPQEYVYGKNNNNVA | DGSTQAW | QQYHRLPLS | En_Gibbs | -0.12 | 6 of 6 | 0 of 18
KLSQSMLYESRNPNSVA | NASTRES | QQYHRLPLS | GP_Gen | no signal | 0 of 6 | 0 of 18
TISGIMMQMSHSKNNVA | EVSMRLD | QQYFRLPLE | En_Gen | 1.35 | 6 of 6 | 2 of 18
KISQSVLYEGRNKNSVA | WASVRER | QQYHRLPLS | Ctrl | 1.39 | 6 of 6 | 0 of 18
MISQLWNMGQFAINSVA | QASERCN | QQYDRLPLM | En_Gen | 0.73 | 6 of 6 | 1 of 18
KFGQSVLMGSYVRNSVA | QSTTREN | QQYDRLPLS | En_HC | 0.12 | 6 of 6 | 0 of 18
KWPQSVLYESRNKNSVA | HASTRED | QSYHRLPLS | GP_HC | 0.42 | 6 of 6 | 0 of 18
MVSQLMLWGHLAKNSIA | EAEHRCN | QQYDRLPLF | En_Gen | 1.41 | 4 of 6 | 1 of 18
KSSYSYLYESENKMSVA | EASQRES | QQYHRLPLS | GP_HC | 1.51 | 6 of 6 | 0 of 18
KLSQSVRMESFDKNSVA | ENSTREA | QDYHRLPLS | En_HC | 2.51 | 1 of 6 | 0 of 18
KVSQSSLYESRNKNSVA | NASTRES | QQYHRLPLS | GP_Gen | -0.22 | 6 of 6 | 1 of 18
KSSQSVDTESRNKNSVA | DASTRES | QQYHRLPLS | GP_HC | 0.19 | 6 of 6 | 1 of 18
KITATMRFEQKISNNIA | EVTTRSK | QQYYRLPLS | En_Gen | 0.30 | 6 of 6 | 2 of 18
KIEQSWLYESRNKNSVA | NASQRES | QQYHRLPLS | GP_Gen | -0.18 | 6 of 6 | 2 of 18
MISQLYNMGQFAINSVA | QASIRNS | QQYDRLPLI | En_Gen | 1.60 | 6 of 6 | 0 of 18
NMTGTKEMQSNNINNIA | EMNERFA | QQYFQLPLS | En_Gibbs | 2.54 | 4 of 6 | 0 of 18
KLDLNNGEMDKKGQNIA | EASTAGT | QSYWRLPLS | En_Gibbs | no signal | 0 of 6 | 0 of 18
KIYAATMLESHDKNSIA | DLTNRGN | QQYHRLPLS | En_HC | 1.71 | 6 of 6 | 0 of 18
HISQMVMYGSCMKNNVA | QVSLREE | QQYHRLPLS | En_HC | 1.13 | 6 of 6 | 2 of 18
KSSQSFLMESDNKNSVA | YASTRES | QQYHRLPLS | Ctrl | 1.11 | 6 of 6 | 0 of 18

The 5 strongest on average among those seen in every replicate, once more:

CDR-L1 | CDR-L2 | CDR-L3 | group | mean log10 Kd (nM) | replicates with signal | empty controls
KFPQSELYESRNKNSVA | NASQRES | QQYHRLPLS | GP_Gen | -0.38 | 6 of 6 | 0 of 18
KVSQSSLYESRNKNSVA | NASTRES | QQYHRLPLS | GP_Gen | -0.22 | 6 of 6 | 1 of 18
ALSQSMDMTSKNVNSVA | DLTTRGN | QQYHRLPLS | En_HC | -0.22 | 6 of 6 | 1 of 18
KSQQNVLYESRNKNSVA | GASTRES | QQYHRLPLS | Ctrl | -0.20 | 6 of 6 | 2 of 18
KLQQSVLYESRNKNSVA | NASTRMQ | QQYHRLPLS | GP_Gen | -0.18 | 6 of 6 | 1 of 18

Reference: Li et al. 2023, doi:10.1038/s41467-023-39022-2. File: FLAb, binding data.